# Measurements published in patent publication US20240189316A1, “DEUTERATED ANALOGS OF ETIFOXINE AND METHODS OF ADMINISTRATION WITHOUT AUTOINDUCTION OF METABOLISM” (Gaba Therapeutics Inc., priority 2022, published 2024).
# Experiment: Phase 1 multiple-ascending dose study, plasma pharmacokinetics in healthy subjects
# Conditions: human, in vivo
# Experimental: The first dose of study drug was given on Day 1. On Days 1 through 6, subjects subsequently received two (q12h) oral doses of study drug each day. A final single dose of study drug was given on Day 7. Each dose of study drug was given with a 240 mL glass of water at the end of ingestion of a standard meal. The meal was provided 30 minutes before dosing and was completed within 30 minutes or less. On Day 1 and Day 7, subjects were required to fast for 8 hours before the morning meal dose and for 2 hours post dose (water was freely available during this time).
compound,measurement,value
"[2H]C([2H])([2H])C([2H])([2H])NC1=Nc2ccc(Cl)cc2C(C)(c2ccccc2)O1 (racemic) [Deuterated Etifoxine, 6-chloro-N-(ethyl-d5)-4-methyl-4-phenyl-4H-3,1-benzoxazin-2-amine]",Renal clearance,low renal clearance
